A short description of the data set: rat acute oral toxicity. Particulars: in vivo.

Here are results for 2 compounds from the CATMoS acute toxicity set (Mansouri et al. 2021).

Each structure is given as a SMILES string.

One may read the LD50 as the dose expected to kill half of the subjects tested.

In turn, `CC12CCC(CC1)C(C)(C)O2` showed an LD50 of 2480 mg/kg.
The figure for `CCCCCCO` is 3210 mg/kg.
